Results reported in patent publication EP4162932A1, “ANTIVIRAL HOP CONSTITUENTS” (HHV Hallertauer Hopfenveredelungsgesellschaft mbH, priority 2021, dated 2023).

Target: SARS-CoV-2 PLpro (Severe acute respiratory syndrome coronavirus 2, UniProt P0DTD1)
Experiment: PLpro kinetic inhibition assay, cleavage of AMC peptide mimicking the C-terminus of human ISG15
Format: biochemical

SMILES: COc1cc(O)c(CC=C(C)C)c(O)c1C(=O)/C=C/c1ccc(O)cc1 [XN, xanthohumol]
- inhibitory effect on PLpro (in words): lowest inhibitory effect
